{"sequences": {"note": "By UniProt entry, the sequences of proteins in these tests, tags left out. Where a name states a change or a piece, a line headed by the entry shows the natural chain unless it says otherwise.", "UniProt O75874, whole entry": "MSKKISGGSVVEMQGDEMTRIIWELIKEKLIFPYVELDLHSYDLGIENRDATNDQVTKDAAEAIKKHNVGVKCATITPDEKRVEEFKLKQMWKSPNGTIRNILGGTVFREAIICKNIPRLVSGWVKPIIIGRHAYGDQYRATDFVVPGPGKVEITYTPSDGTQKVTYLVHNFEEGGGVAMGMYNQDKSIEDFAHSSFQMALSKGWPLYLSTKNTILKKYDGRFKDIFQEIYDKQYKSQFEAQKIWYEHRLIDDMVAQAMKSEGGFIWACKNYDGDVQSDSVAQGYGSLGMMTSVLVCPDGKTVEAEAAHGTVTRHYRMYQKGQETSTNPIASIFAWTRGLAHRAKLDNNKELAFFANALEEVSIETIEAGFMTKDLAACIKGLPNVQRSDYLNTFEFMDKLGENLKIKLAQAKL"}, "source": "paper PMC3686309", "about": "(ACS medicinal chemistry letters, 2013)", "key": {"WT IDH1 [1]": {"test_system": "WT IDH1", "experiment": "WT IDH1 enzyme inhibition", "format": "biochemical, human", "conditions": "mutant IDH1 vs WT-IDH1"}, "WT IDH1 [2]": {"biological_target": "WT IDH1 (Homo sapiens, UniProt O75874)", "experiment": "WT IDH1 enzyme inhibition", "format": "biochemical"}}}
{"compound": "Cc1cc(Cc2ccc(O)cc2)n(O)c(=O)c1", "note": "[Compound 3]", "values": [{"measurement": "selectivity against WT-IDH1", "setting": "WT IDH1 [1]", "result": "> 60", "unit": "fold"}]}
{"compound": "O=c1ccc(Cc2ccccc2)cn1O", "note": "[Compound 1]", "values": [{"measurement": "Ki", "setting": "WT IDH1 [2]", "result": "> 50", "unit": "µM"}]}
